Experiments:
[1] = system: rats; experiment: Pilot study: fentanyl-induced respiratory depression in rats, measured with a non-invasive pulse oximeter collar; details: rat, Naloxone 1 mg/kg i.v. after Fentanyl 20 g/kg i.v. bolus (FIG. 20 panel D)
[2] = system: rat; experiment: Closed-loop control of respiratory depression with the implantable device after fentanyl injection; details: closed loop automated naloxone delivery by the implantable device vs manual subcutaneous naloxone injection (FIG. 11)

C=CCN1CC[C@]23c4c5ccc(O)c4O[C@H]2C(=O)CC[C@@]3(O)[C@H]1C5
Reversal of the fentanyl-induced decrease in SpO2 [1]: reversed | SpO2 recovery after Fentanyl injection (elapsed time to recover 90% SpO2) [2]: comparative recovery as subcutaneous manual injection of naloxone
